Source: publication PMC5908310 (2018)

What was measured:
EGFR [1] = target: T1, EGFR (Homo sapiens, UniProt P00533); assay: flow
EGFR [2] = target: T1, EGFR; assay: BLI

B1: nimotuzumab (antibody, V domains shown)
VH: QVQLQQSGAEVKKPGSSVKVSCKASGYTFTNYYIYWVRQAPGQGLEWIGGINPTSGGSNFNEKFKTRVTITADESSTTAYMELSSLRSEDTAFYFCTRQGLWFDSDGRGFDFWGQGTTVTVSS
VL: DIQMTQSPSSLSASVGDRVTITCRSSQNIVHSNGNTYLDWYQQTPGKAPKLLIYKVSNRFSGVPSRFSGSGSGTDFTFTISSLQPEDIATYYCFQYSHVPWTFGQGTKLQIT
Kd (EGFR [1]): 13 nM
Kd (EGFR [2]): 23 nM
